Laboratory results taken from article PMC8224802 (Pharmaceutics, 2021).
Values joined by “and” are separate entries in the source; they are usually repeats but may differ in a detail not shown here. Equal entries are not always repeated.

Columns and labels:
[1] = Blood-to-plasma concentration ratio (rat whole blood); type: in vitro ADME; details: RPG 5 μM alone, 37 °C, read-out: RB (blood-to-plasma concentration ratio)
Protocol: (§1) The blood-to-plasma concentration ratio (RB) of RPG was determined as described previously. Briefly, 1 mL of fresh blood was spiked with either RPG alone or in combination with QCT, yielding a final concentration of 5 μM for both compounds, and then incubated at 37 °C for 60 min. A plasma sample was obtained by centrifugation of the blood sample at 2000× g for 5 min. The concentrations of RPG in 50 μL of the plasma samples were determined using a validated high-performance liquid chromatography (HPLC) method.

[2] = Blood-to-plasma concentration ratio (human whole blood); type: in vitro ADME; details: RPG 5 μM alone, 37 °C, read-out: RB (blood-to-plasma concentration ratio)
Protocol: as §1

[3] = In vitro microsomal metabolism of RPG (disappearance) in HLM; type: in vitro ADME, human; details: HLM 0.3 mg/mL, 1–500 μM RPG, Michaelis–Menten fit
Protocol: The concentration-dependent disappearance of RPG in the RLM and HLM was evaluated to investigate the kinetics of the hepatic CYP-mediated metabolism of RPG. A microsomal reaction mixture consisting of microsomes (0.3 mg/mL), 1 mM NADPH, 50 mM phosphate buffer, and 1–500 μM RPG in distilled water (DW) was prepared, at a total volume of 200 μL. At 0, 30, and 60 min after starting the metabolic reaction, a 50 μL aliquot of the incubation mixture was sampled and transferred to a clean 1.5-mL microcentrifuge tube containing 150 μL of ice-cold acetonitrile to terminate the metabolic reaction. Following centrifugation at 15,000× g for 10 min, 150 μL of the resultant supernatant was obtained and the concentration of RPG in the sample was determined using the HPLC method.
A single-site Michaelis–Menten Equation was simultaneously fitted to the substrate (RPG) concentration ([S]; μM) as follows versus initial metabolic rate (V; pmol/min/mg protein):(2) V= Vmax × [S]/Km+[S] where Vmax and Km are the maximal metabolic rate and Michaelis–Menten constant, respectively. The intrinsic metabolic clearance (CLint) was calculated as Vmax/Km. […] The type of inhibition of QCT on the hepatic metabolism of RPG was determined graphically using a Dixon plot. […]

[4] = In vivo intravenous pharmacokinetic study of RPG without or with QCT in rats; design: species or system Sprague-Dawley rats; details: CLH divided by QH 50–80 mL/min/kg
Protocol: (§2) Rats were anesthetized via intramuscular injection of 10 mg/kg zoletil. The femoral vein and artery of the rats were cannulated using a polyethylene tube (BD Medical, Franklin Lakes, NJ, USA). After recovery from anesthesia, a single intravenous or oral dose (0.4 mg/kg) of RPG with or without a single simultaneous intravenous dose (25 mg/kg) or oral dose (100 mg/kg) of QCT was administered to the rats. The vehicle solutions for the intravenous and oral doses were composed of PEG 400 and aqueous 0.3% CMC solution (50:50 v/v). […] After centrifugation of the blood sample at 2000× g at 4 °C for 5 min, 120 μL of the resulting supernatant (plasma) was obtained and the concentration of RPG in the sample was determined using the HPLC method.
(§3) Non-compartmental analysis (WinNonlin, version 3.1, NCA200 and 201; Certara, Inc., Princeton, NJ, USA) was conducted to estimate the following pharmacokinetic parameters: total area under the plasma concentration–time curve from time zero to time infinity (AUC); total body clearance (CL, calculated as dose/AUC); terminal half-life (t1/2); and apparent volume of distribution at steady state (Vss). For comparison, the extent of absolute oral bioavailability (F; expressed as percent of dose administered) was calculated by dividing the dose-normalized AUC after oral administration by the dose-normalized AUC after intravenous injection. […]

[5] = In vivo oral pharmacokinetic study of RPG without or with QCT in rats; details: Sprague-Dawley, rat, plasma, 0.4 mg/kg, RPG 0.4 mg/kg oral, RPG alone
Protocol: as §2, §3

[6] = Prediction of clinical herb-drug interaction by the basic (simple static) model; design: species or system human; details: clinical prediction from in vitro data

blood plasma ratio at 60 min, 5 μM [1]: 0.869 ± 0.043
blood plasma ratio at 60 min, 5 μM [2]: 0.847 ± 0.021
Km [3]: 43 µM and 42.8 µM
Hepatic extraction ratio (EH) [4]: 0.114–0.182
AUC [5]: 428 ng·h/mL
R, predicted ratio of the AUC of RPG in the presence and absence of QCT (1 + Imax,u / Ki) [6]: 1.03–1.54
Structure (SMILES): CCOc1cc(CC(=O)N[C@@H](CC(C)C)c2ccccc2N2CCCCC2)ccc1C(=O)O [RPG, Repaglinide]
